The values that follow come from US11547712B2, “Kinase inhibitor compounds and compositions and methods of use” (ICAHN SCHOOL OF MEDICINE AT MOUNT SINAI, priority 2017, dated 2023).

For test [1], the target named is T1, DYRK1A (Homo sapiens (Human), UniProt Q13627). Kind of test: FRET-based LanthaScreen Eu Kinase Binding Assay (Life Technologies). The note with it: 30 μM single concentration; read-out: Screening (30 μM) LifeTech: % DYRK1A inhibition at 30 μM. The procedure:
(§1) DYRK1A Binding Assays. Compounds were tested for DYRK1A binding activity at two different commercial kinase profiling services, Life Technologies and DiscoverX. […] Compounds were screened for DYRK1A activity at a single concentration of 30 μM in duplicates.

The target in test [2] is T1, DYRK1A. The experiment in a line: KINOMEscan Assay (DiscoverX), DYRK1A binding. The note with it: read-out: Screening (30 μM) DiscoverX: primary screen binding interactions, % DMSO Ctrl. Here is the method:
as §1

As for `O=c1[nH]c2ccc(C3=NN=C(NCc4ccc5ccccc5c4)SC3)cc2[nH]1` [Compound 3-40, N-(2-naphthylmethyl)-5-(benzo[d]imidazol-2(3H)-one)-6H-1,3,4-thiadiazin-2-amine], on DYRK1A [1], the inhibition at 30 µM is 24%. Also, on DYRK1A [2], the remaining binding at 30 µM was 64%.

Regarding `O=c1[nH]c2ccc(C3=NN=C(Nc4cccc5ccccc45)SC3)cc2[nH]1` [Compound 3-42, N-(1-naphthyl)-5-(benzo[d]imidazol-2(3H)-one)-6H-1,3,4-thiadiazin-2-amine], the inhibition at 30 µM on DYRK1A [1] was 32%. In addition, the remaining binding at 30 µM on DYRK1A [2] stood at 82%.
